Measurements: ChEMBL document CHEMBL3044733, “Synthesis of novel phosphorothioates and phosphorodithioates and their differential inhibition of cholinesterases” (2009)

By UniProt entry, the sequences of proteins in these tests, tags left out. Residues count along the entry.
UniProt O42275, 24-633 limits assumed: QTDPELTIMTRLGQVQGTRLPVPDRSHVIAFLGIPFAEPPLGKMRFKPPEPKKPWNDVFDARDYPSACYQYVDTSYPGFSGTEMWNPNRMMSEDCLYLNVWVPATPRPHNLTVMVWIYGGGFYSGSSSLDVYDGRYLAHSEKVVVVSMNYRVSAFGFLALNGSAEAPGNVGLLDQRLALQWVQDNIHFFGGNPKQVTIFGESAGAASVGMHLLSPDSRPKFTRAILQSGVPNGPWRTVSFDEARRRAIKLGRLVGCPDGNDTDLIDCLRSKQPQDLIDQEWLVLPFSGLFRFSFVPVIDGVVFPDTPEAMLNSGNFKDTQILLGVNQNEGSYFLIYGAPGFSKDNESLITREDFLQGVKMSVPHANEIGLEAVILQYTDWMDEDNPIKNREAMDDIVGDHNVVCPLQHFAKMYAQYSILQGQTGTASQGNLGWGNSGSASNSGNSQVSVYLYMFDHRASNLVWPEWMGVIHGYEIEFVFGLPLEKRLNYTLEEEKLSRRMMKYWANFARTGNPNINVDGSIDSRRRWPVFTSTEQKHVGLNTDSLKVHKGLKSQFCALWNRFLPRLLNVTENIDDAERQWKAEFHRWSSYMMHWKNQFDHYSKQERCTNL
UniProt P81908, whole entry: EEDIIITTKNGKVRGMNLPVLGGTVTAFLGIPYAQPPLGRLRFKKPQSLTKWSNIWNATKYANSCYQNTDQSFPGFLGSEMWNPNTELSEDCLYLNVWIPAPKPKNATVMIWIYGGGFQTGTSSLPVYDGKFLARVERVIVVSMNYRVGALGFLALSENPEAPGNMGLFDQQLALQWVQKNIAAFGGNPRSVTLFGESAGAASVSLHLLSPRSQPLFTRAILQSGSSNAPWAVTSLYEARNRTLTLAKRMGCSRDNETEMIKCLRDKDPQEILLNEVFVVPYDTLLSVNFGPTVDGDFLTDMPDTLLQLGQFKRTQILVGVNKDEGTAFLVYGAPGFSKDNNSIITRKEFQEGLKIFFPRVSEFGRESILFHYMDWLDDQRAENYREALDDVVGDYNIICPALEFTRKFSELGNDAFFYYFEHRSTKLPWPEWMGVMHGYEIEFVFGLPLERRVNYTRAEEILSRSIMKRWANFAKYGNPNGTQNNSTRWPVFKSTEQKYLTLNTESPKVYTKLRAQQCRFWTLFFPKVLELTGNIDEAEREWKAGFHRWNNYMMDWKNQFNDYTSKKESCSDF

Key:
[1] = biological target: Acetylcholinesterase (Electrophorus electricus, UniProt O42275); experiment: Inhibition of Electrophorus electricus (electric eel) acetylcholinesterase by Ellman method
[2] = biological target: Cholinesterase (Equus caballus, UniProt P81908); experiment: Inhibition of Equus caballus (horse) serum butyrylcholinesterase by Ellman's method

CCOP(=O)(OCC)SCCN1C(=O)c2ccccc2C1=O
IC50 [1]: 1180 nM
IC50 [2]: 220 nM
